Like-named read-outs stand apart in the source and are kept apart here.
How the values were obtained:
[1] = system: No. 04 Coronavirus; test: Inhibition on No. 04 Coronavirus in HELA cells (CPE method); assay type: cell-based; settings: inhibition: drug added after virus
[2] = system: No. 04 Coronavirus; assay type: cell-based; settings: prevention: drug before virus

Q: Which “therapeutic index (TI)” value [1] does the source give for `Nc1nc(O)c2ncn(COC(CO)CO)c2n1` [Ganciclovir, reference compound] here?
A: 256

Q: And the “therapeutic index (TI)” value [2]?
A: 256
